This note sets out measurements from ChEMBL document CHEMBL3414544, “PAINS in the assay: chemical mechanisms of assay interference and promiscuous enzymatic inhibition observed during a sulfhydryl-scavenging HTS” (J Med Chem, 2015).

Chains of the proteins cited; added tags and fusions are not shown. Lines headed by an entry give the natural chain unless they say otherwise; changes in a name come on top.
UniProt Q03330: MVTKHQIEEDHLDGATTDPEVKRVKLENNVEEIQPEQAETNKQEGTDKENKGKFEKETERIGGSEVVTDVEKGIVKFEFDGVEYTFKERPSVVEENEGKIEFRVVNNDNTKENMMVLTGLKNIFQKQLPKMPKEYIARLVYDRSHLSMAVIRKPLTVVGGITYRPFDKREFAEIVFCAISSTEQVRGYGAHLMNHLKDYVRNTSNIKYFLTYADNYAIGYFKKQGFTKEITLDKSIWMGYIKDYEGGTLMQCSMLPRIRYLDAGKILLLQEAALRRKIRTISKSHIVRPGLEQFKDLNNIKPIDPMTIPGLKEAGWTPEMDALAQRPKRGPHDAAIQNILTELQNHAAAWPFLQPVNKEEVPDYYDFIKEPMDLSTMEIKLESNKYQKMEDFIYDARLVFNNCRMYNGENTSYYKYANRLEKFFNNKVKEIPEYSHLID

Assay [1] concerns the target T1, Histone acetyltransferase RTT109 (Saccharomyces cerevisiae (strain ATCC 204508 / S288c) (Baker's yeast), UniProt Q07794).
T1 sequence (Q07794 whole entry): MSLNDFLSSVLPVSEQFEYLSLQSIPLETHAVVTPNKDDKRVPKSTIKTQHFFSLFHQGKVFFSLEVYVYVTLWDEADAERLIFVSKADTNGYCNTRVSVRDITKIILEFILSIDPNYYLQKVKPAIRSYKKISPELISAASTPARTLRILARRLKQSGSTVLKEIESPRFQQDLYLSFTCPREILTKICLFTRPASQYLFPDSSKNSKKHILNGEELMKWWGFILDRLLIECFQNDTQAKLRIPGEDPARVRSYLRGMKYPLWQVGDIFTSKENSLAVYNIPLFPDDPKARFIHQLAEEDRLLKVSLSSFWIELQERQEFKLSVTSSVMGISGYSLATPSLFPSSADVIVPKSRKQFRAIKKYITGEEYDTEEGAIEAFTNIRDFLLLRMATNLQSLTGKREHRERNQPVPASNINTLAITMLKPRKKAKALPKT
In words: Inhibition of Vps75-stimulated recombinant Saccharomyces cerevisiae histone acetyltransferase Rtt109 using Asf1-dH3-H4 as substrate assessed as coenzyme A production after 45 mins by CPM based HTS assay. The gist of the method:
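Recombinant Rtt109–Vps75 at 50 nM, with Asf1–dH3–H4 as substrate and acetyl-CoA as acetyl donor. Buffer contained freshly prepared 0.01% Triton X-100. The CoA product was detected by fluorescence of its CPM adduct. Plates had Z′ ≥0.5. IC50 came from a four-parameter variable-slope fit.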

Assay [2] has as its target T2, Histone acetyltransferase RTT109 (Saccharomyces cerevisiae (strain ATCC 204508 / S288c) (Baker's yeast)) (UniProt Q07794).
T2 sequence (whole entry): T1 sequence (Q07794 whole entry)
In words: Inhibition of Vps75-stimulated recombinant Saccharomyces cerevisiae histone acetyltransferase Rtt109 assessed as H3K56 acetylated product at […] after 45 mins by Slot bolt inhibiton assay.

In assay [3] the target is T2, Histone acetyltransferase RTT109 (Saccharomyces cerevisiae (strain ATCC 204508 / S288c) (Baker's yeast)). In words: Inhibition of Vps75-stimulated recombinant Saccharomyces cerevisiae histone acetyltransferase Rtt109 assessed as H3K27 acetylated product at […] after 45 mins by Slot bolt inhibiton assay.
For assay [4], the target named is Histone acetyltransferase GCN5 (Saccharomyces cerevisiae S288c, UniProt Q03330). In words: Inhibition of yeast histone acetyltransferase Gcn5-Ada2-Ada3 complex using tetramer and [3H]-acetyl-CoA assessed as acetate incorporation after 30 mins by liquid scintillation counting. Summed up:
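Gcn5–Ada2–Ada3 at about 500 pM, with recombinant dH3–H4 tetramers as substrate and 2.5 μM [3H]-acetyl-CoA. Buffer was 50 mM Tris-HCl pH 8.0, KCl, EDTA, 1 mM DTT, 0.01% Triton X-100 and BSA. […] Quenched aliquots were spotted on P-81 filters and counted by scintillation; results are percent of DMSO control.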

The target of assay [5] is T2, Histone acetyltransferase RTT109 (Saccharomyces cerevisiae (strain ATCC 204508 / S288c) (Baker's yeast)). Kind of assay: Inhibition of Vps75-stimulated recombinant Saccharomyces cerevisiae histone acetyltransferase Rtt109 using [3H]-acetyl-CoA assessed as acetate incorporation […] by liquid scintillation counting in presence of 1 mM DTT.

Active and inactive are the calls of the source.

In the case of `Cc1nnc(SC2CC(=O)N(c3ccc(Br)cc3)C2=O)s1` (stereo not given), the IC50 (usually the concentration at which inhibition is half-maximal) in assay [1] was 11 µM.

Regarding `O=S(=O)(Nc1cc(Sc2ccccc2)c(O)c2ccccc12)c1ccccc1`, in assay [1], the IC50 turned out to be 1.9 µM.

For the molecule `O=C1CC(Sc2nnnn2-c2ccccc2)C(=O)N1c1ccc([N+](=O)[O-])cc1` (stereo not given), in assay [1], the IC50 worked out at 14 µM.

Regarding `O=S(=O)(Nc1ccc(O)c(Br)c1)c1ccc(Cl)cc1`, in assay [1], the IC50 amounted to 120 µM.

For `O=S(=O)(Nc1cc(Br)c(O)c2ccccc12)c1ccc2ccccc2c1`, the half-maximal inhibitory concentration (IC50) in assay [1] came to 3.4 µM.

As for `Cc1ccc(-c2nc(Nc3ccccc3)s[n+]2CS(=O)(=O)c2ccccc2)cc1.[Cl-]`, the IC50 in assay [1] came out at 15 µM.

`CC(C)(C)c1ccc(S(=O)(=O)Nc2cc(SCC(=O)O)c(O)c3ccccc23)cc1`: the result in assay [2] and in assay [3] was Active.

For `O=C1CC(Sc2nnc(-c3ccccc3O)o2)C(=O)N1c1ccccc1` (stereo not given), in assay [1], the IC50 came to 21 µM.

As for `O=c1[nH]c(Sc2c([N+](=O)[O-])cc(Br)c3nsnc23)nc2ccccc12`, the IC50 in assay [1] amounted to 9.5 µM.

For `Cc1occc1-c1nnc(SC2=CS(=O)(=O)c3ccccc32)o1`, the IC50 in assay [1] turned out to be 7.5 µM.

In the case of `[O-][Cl+3]([O-])([O-])[O-].c1ccc(C[n+]2sc(N(c3ccccc3)c3ccccc3)nc2-c2ccccc2)cc1`, the IC50 in assay [1] stood at 3.6 µM.

`O=S1(=O)C=C(Sc2nn(-c3ccccc3)c(=S)s2)c2ccccc21`: in assay [1], the IC50 was determined as 7 µM.

Regarding `Cc1ccc(-c2nc(N(c3ccccc3)c3ccccc3)s[n+]2CS(=O)(=O)c2ccccc2)cc1.[O-][Cl+3]([O-])([O-])[O-]`, the half-inhibitory concentration (IC50) in assay [1] came to 44 µM.

Take `O=S(=O)(C[n+]1sc(Nc2ccc(Cl)cc2Cl)nc1-c1ccccc1)c1ccccc1.[Cl-]`: in assay [1], the IC50 amounted to 9 µM.

Regarding `[Br-].c1ccc(Nc2nc(-c3ccccc3)[n+](-c3ccccc3)s2)cc1`, the IC50 in assay [1] worked out at 3.4 µM.

Consider `CC(C)c1ccc(S(=O)(=O)Nc2ccc(O)c(Br)c2)cc1`, for which, in assay [1], the IC50 was 99 µM.

In the case of `O=[N+]([O-])c1cc(Br)c2nsnc2c1Sc1nnnn1C1CCCCC1`, in assay [1], the IC50 is 3.1 µM.

For `O=S(=O)(Nc1cc(Sc2nnnn2-c2ccccc2)c(O)c2ccccc12)c1ccccc1`, in assay [4], the IC50 was 4.3 µM.

For the molecule `Cc1ccc(S(=O)(=O)C2=CS(=O)(=O)c3ccccc32)cc1`, in assay [1], the IC50 was 10 µM.

`CCC(=O)OCCNc1cc(Sc2nnc(-c3ccccc3)s2)c2nonc2c1[N+](=O)[O-]`: the IC50 in assay [1] turned out to be 7 µM.

Turning to `CC(C)c1ccc(S(=O)(=O)Nc2cc(SCCC(=O)O)c(O)c3ccccc23)cc1`, the outcome in assay [2] and in assay [3] was Active.

As for `O=C(O)c1ccc(S(=O)(=O)Nc2cc(Br)c(O)c3ccccc23)cc1`, the 50% inhibitory concentration (IC50) in assay [1] was 2.8 µM.

Regarding `COc1cc(-c2nnc(SC3=CS(=O)(=O)c4ccccc43)o2)cc(OC)c1OC`, in assay [1], the IC50 came to 10 µM.

Consider `COc1ccc(Nc2nc(-c3ccc(C)cc3)[n+](Cc3ccccc3)s2)cc1.[Cl-]`, for which the IC50 in assay [1] was found to be 9.2 µM.

As for `O=C(O)CSc1cc(NS(=O)(=O)c2ccc(Br)cc2)c2ccccc2c1O`, the result in assay [2], in assay [3] and in assay [5] was Active.

On to `O=C(O)CSc1cc(NS(=O)(=O)c2ccc(C(=O)O)cc2)c2ccccc2c1O`, for which the outcome in assay [2], in assay [3] and in assay [5] was Active.

With `Cn1c(Sc2ccc([N+](=O)[O-])c3nonc23)nnc1-c1ccccc1`, in assay [1], the half-inhibitory concentration (IC50) worked out at 1.9 µM.

With `Cc1cc(C)c(S(=O)(=O)Nc2cc(Br)c(O)c3ccccc23)c(C)c1`, the IC50 in assay [1] was 2.8 µM.

In the case of `Cc1ccc(-c2nnc(SC3CC(=O)N(c4ccc(Oc5ccccc5)cc4)C3=O)[nH]2)cc1` (stereo not given), the IC50 in assay [1] was 20 µM.

As to `CCOc1ccc(Nc2nc(-c3ccc(C)cc3)[n+](Cc3ccc([N+](=O)[O-])cc3)s2)cc1.[Br-]`, the IC50 in assay [1] turned out to be 3.8 µM.

Regarding `O=C1CC(Sc2nnc(-c3ccccc3)[nH]2)C(=O)N1c1ccc(Oc2ccccc2)cc1` (stereo not given), in assay [1], the IC50 was 8.6 µM.

As for `O=C(O)CCSc1cc(NS(=O)(=O)c2ccc(Br)cc2)c2ccccc2c1O`, the outcome in assay [2], in assay [3] and in assay [5] was Active.

Turning to `CSc1nsc(SC2=CS(=O)(=O)c3ccccc32)n1`, the IC50 in assay [1] stood at 4.5 µM.

Turning to `Cc1ccc(-c2nnc(SC3CC(=O)N(c4ccc5ccccc5c4)C3=O)[nH]2)cc1` (stereo not given), in assay [1], the 50% inhibitory concentration (IC50) was 12 µM.

Consider `O=C(O)CSc1cc(NS(=O)(=O)c2cccc([N+](=O)[O-])c2)c2ccccc2c1O`, for which the result in assay [2] and in assay [3] was Active.

As to `CC(C)c1ccc(S(=O)(=O)Nc2cc(Sc3nc[nH]n3)c(O)c3ccccc23)cc1`, the IC50 in assay [1] came out at 1.4 µM.
